Screening results from PubChem BioAssay.
TRPM1 prom inh: MITF TRPM1 promoter inhibition in SK-MEL-5 cells; SK-MEL-5 TRPM1 promoter luciferase, 24 h; AID 488899; inhibition, % at 12.5 µM; hit rate 0.83% among 330,000;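 active = mean inhibition across replicates of 60% or more, whatever share of single replicates reaches that level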
MITF act: increases MITF-driven TRPM1 promoter luciferase signal; AID 588334; hit rate 0.75% among 300,000; activation, % at 12.5 µM; SK-MEL-5 TRPM1-promoter luciferase, 24 h; % of positive control, neutral wells = 0;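 active = mean activation of at least 80% with every replicate also reaching 80%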;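 also: 0% = neutral control wells and 100% = parthenolide positive control wells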
Wnt act: Wnt/beta-catenin pathway activation | Wnt/beta-catenin reporter cell assay, activator, plate reader | activation, % at 9.35 µM | hit rate 1.2% among 300,000 | AID 743398; in the data active = activation above about 30%, passing the limit was not always enough;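 also: 0% = neutral control wells and 100% = positive control wells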
UUG fidelity: alters start codon recognition fidelity in yeast | S. cerevisiae UUG-firefly luciferase reporter, luminescence/redox ratio | activity score, % at 18.7 µM | hit rate 0.13% among 350,000 | AID 602363;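 active means replicate mean at a twofold rise or more, about +100% in these data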;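 further: firefly luciferase made from a UUG start codon reports start codon fidelity; reporter light over untreated wells divided by growth signal over untreated wells; some hits fall short of that in this replicate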
PGC1a acetyl inh: PGC1a acetylation modulation, inhibitor mode. AID 651687. U2OS PGC1a acetylation, AlphaScreen anti-acetyl-lysine; with virally co-expressed GCN5 acetyltransferase. hit rate 0.17% among 350,000. inhibition, % at 15.6 µM;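 active = every replicate shows inhibition of at least 40%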;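 also: 0% = neutral control wells and 100% = positive control wells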
miR122 inh: blocks miR-122 activity in Huh7 sensor cells. Huh7 miR-122 Renilla luciferase sensor, 48 h; neutral wells = 0, positive control = 100. activation (reporter increase), % at 12.5 µM. hit rate 0.3% among 340,000. AID 602342;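 active = mean replicate activation score at least 90 and every replicate individually at or above 90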;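 also: higher luciferase means less miR-122 activity so hits act as miR-122 inhibitors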
* = called active by the depositor; . = no result; [ ] = dose if it differs, or a comment. Shown are actives, neighbours in structure and some others; about 2.1% of the full set was active somewhere.

| MITF act | PGC1a acetyl inh | Wnt act | miR122 inh | Molecule | UUG fidelity | TRPM1 prom inh |
| --- | --- | --- | --- | --- | --- | --- |
| . | 4 | . | -10[16.7 µM] | C[C@H](CO)N1C[C@H](C)[C@@H](CN(C)CC2CCCCC2)Oc2ccc(NS(=O)(=O)c3ccc(F)cc3)cc2CC1=O | 7 | . |
| -84 | 0 | -6 | 45 | C=C1C(=O)OC2C=C(CO)C3OC3C3OC3(C)CC(OC(=O)/C(=C/C)COC(C)=O)C12 (stereo unspecified) | . | 84* |
| . | 105* | . | 7[16.7 µM] | Cc1ccc(S(=O)(=O)N[C@H]2C=C[C@@H](CC(=O)NCCN3CCCCC3)O[C@H]2CO)cc1 | . | . |
| -73 | . | 18 | . | CCN(CC)CCN(C(=O)c1cc2c(ccc3ccccc32)oc1=O)c1nc2cc3c(cc2s1)OCCO3 | -30 | 75* |
| 77 | -16 | 51* | -4 | Nc1nc(-c2ccc(Cl)cc2)nnc1-c1ccc(Br)cc1 | -4 | -76 |
| 89* | . | 0 | . | COC(=O)c1ccc(N=NN2CCCCC2)cc1 | . | -91 |
| . | -15 | . | -5[16.7 µM] | C[C@H](CO)N1C[C@H](C)[C@@H](CN(C)Cc2ccncc2)Oc2ncc(C#Cc3ccccn3)cc2C1=O | -6 | . |
| 52 | . | 43* | . | O=C(/C=C/c1ccc(Br)o1)Nc1nccs1 | . | -54 |
| 24 | -2 | . | 1 | O=C(Nc1nccs1)c1ccc(Br)o1 | -12 | -26 |
| -12 | -5 | -7 | 15 | Cc1cc(C(=O)CSc2ccc(F)cc2)cc(C)c1OC(=S)N(C)C | -44 | 17 |
| 29 | 7 | 41* | -1 | COc1ccc(SCC(=O)c2cc(C)c(OC(=S)N(C)C)c(C)c2)cc1 | -17 | -30 |
| . | -17 | . | . | COc1ccc2[nH]c3c(c2c1)CCN1C(=O)CC[C@H]31 | . | . |
| 28 | -8 | 41* | -1 | COc1ccc2[nH]c3c(c2c1)CCn1c-3nc2ccccc2c1=O | -13 | -29 |
| . | 0 | . | 10[16.7 µM] | C[C@H](CO)N1C[C@H](C)[C@@H](CN(C)CC2CCCCC2)OCCCC[C@H](C)Oc2ccc(NS(=O)(=O)c3ccc(Cl)cc3)cc2C1=O | 16 | . |
| -61 | . | . | -28 | Cc1cc(SCC(=O)N/N=C/c2ccc(O)c(O)c2O)c(C)cc1Br | -1 | 65* |
| 22 | 10 | 24 | 0 | O=C1/C(=C/c2ccco2)CCc2ccccc21 | 5 | -23 |
| 55 | . | 66* | . | Nc1ccc2c(c1)C/C(=C/c1ccco1)C2=O | . | -51 |
| 41 | . | 55* | . | CCOC(=O)Nc1ccc2c(c1)C(=NO)c1ccccc1-2 | . | -46 |
| 46 | -8 | 34* | -4 | CCc1noc(C)c1C(=O)NCCc1ccccc1 | -1 | -45 |
| 5 | . | -2 | . | CCc1noc(C)c1C(=O)NCCc1ccc(F)cc1 | -8 | -2 |
| 60 | -24 | 47* | 2 | Cc1nn(Cc2ccccc2)c(Cl)c1C(=O)NCCc1ccccc1 | -12 | -56 |
| 1 | 3 | -7 | -4 | Cc1nn(Cc2ccccc2)c(Cl)c1C(=O)NCc1ccc(C)n1C | -1 | -2 |
| . | 7 | . | -10[16.7 µM] | COc1cccc(-c2ccc3c(c2)[C@H]2[C@H](CCN2C(=O)C2CCC2)[C@@H](CO)N3)c1 | -4 | . |
| . | 9 | . | -8[16.7 µM] | Cc1ccc(S(=O)(=O)Nc2ccc3c(c2)CC(=O)N([C@@H](C)CO)C[C@H](C)[C@H](CN(C)C(=O)Nc2c(C)noc2C)O3)cc1 | 1 | . |
| . | -1 | . | -4[16.7 µM] | CC(C)NC(=O)N[C@H]1CC[C@@H](CC(=O)NCCCN(C)C)O[C@@H]1CO | -10 | . |
| . | 9 | 47* | -5 | CCN(CC)CCn1c(SCC(=O)NCc2ccco2)nc2c(sc3ccccc32)c1=O | -16 | 4 |
| -98 | . | 9 | -8 | COc1cccc(NC(=O)CSc2nc3c(sc4ccccc43)c(=O)n2CCCN2CCCC2)c1 | -15 | 98* |
| . | -2 | . | 3[16.7 µM] | C[C@@H]1CN([C@@H](C)CO)C(=O)c2cccc(NC(=O)C3CC3)c2O[C@H]1CN(C)S(=O)(=O)c1cn(C)cn1 | -2 | . |
| . | -5 | . | -1[16.7 µM] | CC(C)CC#Cc1ccc2c(c1)O[C@@H](CN(C)C(=O)Cc1ccccn1)[C@@H](C)CN([C@H](C)CO)S2(=O)=O | -4 | . |
| -3 | . | -2 | 168* | CCN(CC)S(=O)(=O)c1cc(C(=O)N(C)CC(=O)Nc2ccc(Cl)cc2)ccc1Cl | . | 1 |
| . | -10 | . | . | CC(=O)n1cc([C@H]2C=C(C(=O)N3CCCCCCC3)O[C@@H](OCCCCO)C2)c2ccccc21 | -16 | . |
| . | 30 | . | 54 | CCNc1ccc(Br)cc(C(=O)/C=C/c2c(Cl)cccc2Cl)c1=O | -13 | 83* |
| -76 | -13 | -9 | . | COC(=O)c1ccc(Nc2cc(C)nc3ccc(C)cc23)cc1 | . | 76* |
| -84 | -11 | -8 | -26 | Cc1ccc2nc(C)cc(Nc3ccc([N+](=O)[O-])cc3)c2c1 | . | 84* |
| . | -3 | . | -1[16.7 µM] | O=C(Nc1ccc(F)cc1)N[C@@H]1C=C[C@H](CC(=O)N2CCOCC2)O[C@@H]1CO | -21 | . |
| -1 | 1 | -1 | 0 | CCOC(=O)N1CCC(N2C(=O)c3ccccc3C2Nc2ccc3c(C)cc(=O)oc3c2)CC1 (stereo unspecified) | 10 | 10 |

Taken from above:
In TRPM1 prom inh, O=C(Nc1nccs1)c1ccc(Br)o1 is listed with -26
In UUG fidelity, O=C(Nc1ccc(F)cc1)N[C@@H]1C=C[C@H](CC(=O)N2CCOCC2)O[C@@H]1CO is listed with -21
In PGC1a acetyl inh, O=C1/C(=C/c2ccco2)CCc2ccccc21 is listed with 10
In UUG fidelity, COc1cccc(-c2ccc3c(c2)[C@H]2[C@H](CCN2C(=O)C2CCC2)[C@@H](CO)N3)c1 is listed with -4
In UUG fidelity, Cc1ccc(S(=O)(=O)Nc2ccc3c(c2)CC(=O)N([C@@H](C)CO)C[C@H](C)[C@H](CN(C)C(=O)Nc2c(C)noc2C)O3)cc1 is listed with 1

Next part.
| MITF act | PGC1a acetyl inh | Wnt act | miR122 inh | Molecule | UUG fidelity | TRPM1 prom inh |
| --- | --- | --- | --- | --- | --- | --- |
| -69 | . | -11 | . | CCOC(=O)N1CCC(N2C(=O)c3ccccc3C2Nc2ccc3c(c2)OCCO3)CC1 (stereo unspecified) | -43 | 71* |
| 8 | . | 3 | . | NC(=O)Nc1ccc(C(=O)OCC(=O)Nc2sccc2C(N)=O)cc1 | -16 | -5 |
| 87* | -4 | 18 | -4 | N#Cc1ccsc1NC(=O)COC(=O)c1ccc(NC(N)=O)cc1 | -7 | -80 |
| -102 | . | . | . | CN(C1=C(NC(=O)c2ccccc2)C(=O)c2ccccc2C1=O)C1CCS(=O)(=O)C1 (stereo unspecified) | . | 103* |
| 2 | . | -1 | . | CCN(CC)S(=O)(=O)c1ccc(N2CCOCC2)c(NS(=O)(=O)c2cccs2)c1 | -7 | 7 |
| 4 | -9 | -2 | 106* | CCN(CC)S(=O)(=O)c1ccc(N2CCOCC2)c(NS(=O)(=O)c2ccc(C(C)C)cc2)c1 | 3 | -1 |
| . | -14 | . | 2[16.7 µM] | COc1ccc(S(=O)(=O)Nc2ccc3c(c2)C(=O)N([C@H](C)CO)C[C@@H](C)[C@@H](CN(C)C(=O)Nc2cccc4ccccc24)OCCCC[C@@H](C)O3)cc1 | -4 | . |
| 14 | . | 7 | -17 | CCOc1ccc(/C=N/O)cc1 | -13 | -17 |
| 42 | . | 31* | . | Cc1ccc(COc2ccc(/C=N/O)cc2)cc1 | . | -44 |
| -4 | 3 | 67* | . | CN1C(=O)NC(c2ccccc2)(C(F)(F)F)S/C1=C(/C#N)c1nnc(N2CCOCC2)n1-c1ccccc1 (stereo unspecified) | . | 3 |
| 16 | . | -1 | . | CN1C(c2ccc(F)cc2)=CS/C1=C(/C#N)c1nnc(N2CCOCC2)n1-c1ccccc1 | . | -13 |
| 8 | . | 4 | . | CCOc1ccc(S(=O)(=O)/N=C(/Nc2ccc(OC)cc2)c2ccccc2)cc1 | -10 | -4 |
| -2 | . | 57* | . | Cc1ccc(S(=O)(=O)/N=C(/Nc2ccc(O)c(C(=O)O)c2)c2ccccc2)cc1 | -6 | 4 |

Among those listed so far, these contain a cyano group.
| MITF act | PGC1a acetyl inh | Wnt act | miR122 inh | Molecule | UUG fidelity | TRPM1 prom inh |
| --- | --- | --- | --- | --- | --- | --- |
| 87* | -4 | 18 | -4 | N#Cc1ccsc1NC(=O)COC(=O)c1ccc(NC(N)=O)cc1 | -7 | -80 |
| -4 | 3 | 67* | . | CN1C(=O)NC(c2ccccc2)(C(F)(F)F)S/C1=C(/C#N)c1nnc(N2CCOCC2)n1-c1ccccc1 (stereo unspecified) | . | 3 |
| 16 | . | -1 | . | CN1C(c2ccc(F)cc2)=CS/C1=C(/C#N)c1nnc(N2CCOCC2)n1-c1ccccc1 | . | -13 |
